These results are taken from ChEMBL document CHEMBL2203214, “Polyether ionophores-promising bioactive molecules for cancer therapy” (Bioorg Med Chem Lett, 2012).

The experiment has as its system MDR. The experiment is described as follows: Inhibition of MDR in multidrug-resistant human KB cells assessed as increase of doxorubicin accumulation after 1 hr relative to control.

Regarding `CC[C@@]1([C@@H]2O[C@@H]([C@H]3O[C@@](O)(CO)[C@H](C)C[C@@H]3C)C[C@@H]2C)CC[C@H]([C@]2(C)CC[C@]3(C[C@H](O)[C@@H](C)[C@@H]([C@@H](C)[C@@H](OC)[C@H](C)C(=O)O)O3)O2)O1` [MONENSIN], the fold change (FC) was 2.
